Measured values published in ChEMBL document CHEMBL1201862, “PubChem BioAssay data set” (2004).

Legend:
Assay in all cases: inhibition of tumour cell growth, NCI panel, 48 h
[1] = system: RXF 393
[2] = system: NCI-H226
[3] = system: SK-MEL-5
[4] = system: KM12
[5] = system: SNB-75
[6] = system: M14
[7] = system: NCI/ADR-RES
[8] = system: RPMI-8226
[9] = system: HCT-15
[10] = system: MCF7
[11] = system: HT-29
[12] = system: MOLT-4
[13] = system: HL-60
[14] = system: MDA-MB-435
[15] = system: EKVX
[16] = system: UACC-257
[17] = system: BT-549
[18] = system: MDA-MB-231
[19] = system: 786-0
[20] = system: NCI-H522
[21] = system: Malme-3M
[22] = system: SW-620
[23] = system: Hs-578T
[24] = system: PC-3
[25] = system: SF-268
[26] = system: IGROV-1
[27] = system: OVCAR-8
[28] = system: LOX IMVI
[29] = system: NCI-H23
[30] = system: SK-MEL-28
[31] = system: SF-295
[32] = system: A549
[33] = system: SR
[34] = system: OVCAR-3
[35] = system: HOP-92
[36] = system: OVCAR-5
[37] = system: OVCAR-4
[38] = system: ACHN
[39] = system: NCI-H460
[40] = system: UO-31
[41] = system: U-251
[42] = system: MDA-N
[43] = system: TK-10
[44] = system: K562
[45] = system: COLO 205
[46] = system: SN12C
[47] = system: HCC 2998
[48] = system: SNB-19
[49] = system: CAKI-1
[50] = system: DU-145
[51] = system: HOP-62
[52] = system: SK-OV-3
[53] = system: CCRF-CEM
[54] = system: SK-MEL-2
[55] = system: HCT-116

`CC[C@H](C)[C@H](NC(=O)[C@H](CCCCN)NC(=O)[C@@H](NC(=O)[C@H](CCC(N)=O)NC(=O)[C@@H](N)CCCNC(=N)N)[C@@H](C)CC)C(=O)N[C@@H](Cc1c[nH]c2ccccc12)C(=O)N[C@@H](Cc1ccccc1)C(=O)N[C@@H](CCC(N)=O)C(=O)N[C@@H](CC(N)=O)C(=O)N[C@@H](CCCNC(=N)N)C(=O)N[C@@H](CCCNC(=N)N)C(=O)N[C@@H](CCSC)C(=O)N[C@@H](CCCCN)C(=O)N[C@@H](Cc1c[nH]c2ccccc12)C(=O)N[C@@H](CCCCN)C(=O)N[C@@H](CCCCN)C(=O)O` was tested, and the GI50 [1] was inactive: > 50 µM, the GI50 [2] was inactive: > 50 µM and the GI50 [3] was inactive: > 50 µM. The GI50 [4] was inactive: 44.1 µM, the GI50 [5] was inactive: > 50 µM and the GI50 [6] was inactive: > 50 µM. For the same molecule, the GI50 [7] was inactive: > 50 µM, the GI50 [8] was inactive: 21.3 µM and the GI50 [9] was greater than 50 µM. For the same molecule, the GI50 [10] was inactive: > 50 µM, the GI50 [11] was inactive: > 50 µM and the GI50 [12] was inactive: > 50 µM. For the same molecule, the GI50 [13] was inactive: 40.1 µM, the GI50 [14] was inactive: > 50 µM and the GI50 [15] was inactive: > 50 µM. For the same molecule, the GI50 [16] was inactive: > 50 µM, the GI50 [17] was inactive: > 50 µM and the GI50 [18] was inactive: > 50 µM. For the same molecule, the GI50 [19] was inactive: > 50 µM, the GI50 [20] was inactive: > 50 µM and the GI50 [21] was inactive: > 50 µM. The GI50 [22] was inactive: > 50 µM, the GI50 [23] was inactive: > 50 µM and the GI50 [24] was inactive: > 50 µM. The GI50 [25] was inactive: 43 µM, the GI50 [26] was inactive: > 50 µM and the GI50 [27] was inactive: > 50 µM. The GI50 [28] was inactive: > 50 µM, the GI50 [29] was inactive: > 50 µM and the GI50 [30] was inactive: > 50 µM. For the same molecule, the GI50 [31] was inactive: > 50 µM, the GI50 [32] was inactive: > 50 µM and the GI50 [33] was inactive: > 50 µM. The GI50 [34] was inactive: > 50 µM, the GI50 [35] was inactive: > 50 µM and the GI50 [36] was inactive: > 50 µM. The GI50 [37] was inactive: > 50 µM, the GI50 [38] was inactive: > 50 µM and the GI50 [39] was inactive: > 50 µM. For the same molecule, the GI50 [40] was inactive: > 50 µM, the GI50 [41] was inactive: > 50 µM and the GI50 [42] was inactive: > 50 µM. The GI50 [43] was inactive: > 50 µM, the GI50 [44] was inactive: > 50 µM and the GI50 [45] was inactive: > 50 µM. For the same molecule, the GI50 [46] was inactive: > 50 µM, the GI50 [47] was inactive: > 50 µM and the GI50 [48] was inactive: > 50 µM. The GI50 [49] was inactive: > 50 µM, the GI50 [50] was inactive: > 50 µM and the GI50 [51] was inactive: > 50 µM. The GI50 [52] was inactive: > 50 µM, the GI50 [53] was inactive: > 50 µM and the GI50 [54] was inactive: > 50 µM. The GI50 [55] was inactive: > 50 µM.

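These data come from cells grown in 96-well plates and exposed to compound for 48 hours at five concentrations. GI50 marks 50% less growth.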 The source made the active and inactive calls. Rule as the data show it: active = GI50 up to about 1.1 µM and inactive = higher.
